# From publication PMC12235045, “Structural insights into allosteric inhibition of HRI kinase by heme binding via HDX-MS” (Biochemical Journal, 2025)
# Amino acid sequences for entries named in this document (tags omitted).
# UniProt Q9BQI3, whole entry, stated change not applied: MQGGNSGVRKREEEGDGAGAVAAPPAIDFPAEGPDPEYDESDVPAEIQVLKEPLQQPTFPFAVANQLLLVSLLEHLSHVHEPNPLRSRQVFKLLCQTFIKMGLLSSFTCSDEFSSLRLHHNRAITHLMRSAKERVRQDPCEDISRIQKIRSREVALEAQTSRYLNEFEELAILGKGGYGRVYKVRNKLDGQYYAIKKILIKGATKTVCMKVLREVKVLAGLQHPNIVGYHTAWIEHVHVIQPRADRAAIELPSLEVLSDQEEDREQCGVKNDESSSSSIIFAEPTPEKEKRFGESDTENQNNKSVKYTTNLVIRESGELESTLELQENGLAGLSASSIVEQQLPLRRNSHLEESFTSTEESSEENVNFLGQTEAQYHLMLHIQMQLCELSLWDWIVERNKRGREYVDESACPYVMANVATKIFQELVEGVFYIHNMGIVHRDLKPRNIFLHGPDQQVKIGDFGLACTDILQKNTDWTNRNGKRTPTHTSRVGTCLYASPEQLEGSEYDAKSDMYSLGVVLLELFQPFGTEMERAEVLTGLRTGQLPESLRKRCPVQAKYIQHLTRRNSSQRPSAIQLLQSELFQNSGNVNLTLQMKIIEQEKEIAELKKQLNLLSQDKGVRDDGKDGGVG
# How the values were obtained:
# [1] = target: HRI (heme-regulated inhibitor) (UniProt Q9BQI3); assay: mass photometry; details: reference: autophosphorylated HRI; sites S6,S41,T97,S114,S115,S144,S151,T160,Y192,Y193,S253,S258,S275,S276,S277,S278,S295,T297,S304,T308,T309,Y405,S409,Y413,T467,T477,T486,T488,S489,T493,Y496,S498,S505,T538,T542,S548,T564,S586,S615
# [2] = target: HRI (heme-regulated inhibitor) (UniProt Q9BQI3); assay: size-exclusion chromatography (Superdex 200); details: reference: autophosphorylated HRI; sites S6,S41,T97,S114,S115,S144,S151,T160,Y192,Y193,S253,S258,S275,S276,S277,S278,S295,T297,S304,T308,T309,Y405,S409,Y413,T467,T477,T486,T488,S489,T493,Y496,S498,S505,T538,T542,S548,T564,S586,S615
other: mass of predominant population [1],other: retention volume [2],Substance
same; reference ~150,–,HRI (heme-regulated inhibitor) (from UniProt Q9BQI3) dephosphorylated HRI
–,same; reference 10.47,HRI (heme-regulated inhibitor) (from UniProt Q9BQI3) lambda phosphatase-dephosphorylated HRI
